This passage reports koff and Kd results from patent US20170372030A9 (published 2017).

The chains behind the UniProt entries cited, without tags or fusion partners.
UniProt P14416, whole entry: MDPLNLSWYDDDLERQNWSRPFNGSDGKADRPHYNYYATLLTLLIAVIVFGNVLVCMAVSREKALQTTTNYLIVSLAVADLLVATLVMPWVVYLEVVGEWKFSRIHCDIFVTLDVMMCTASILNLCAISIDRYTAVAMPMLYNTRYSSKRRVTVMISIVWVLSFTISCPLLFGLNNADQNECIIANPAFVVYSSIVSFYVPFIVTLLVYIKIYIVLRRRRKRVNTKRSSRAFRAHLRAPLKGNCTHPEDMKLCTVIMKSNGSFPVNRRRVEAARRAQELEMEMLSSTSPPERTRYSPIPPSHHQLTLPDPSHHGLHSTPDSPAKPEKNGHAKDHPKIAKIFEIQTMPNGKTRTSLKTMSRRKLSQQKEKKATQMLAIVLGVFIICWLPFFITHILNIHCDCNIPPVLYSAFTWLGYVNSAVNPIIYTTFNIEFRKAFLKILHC

Test [1] concerns the target T1, D2-R (Homo sapiens, UniProt P14416). The test can be described thus: Drug and tracer binding affinity and on/off rates at the D2-R (Table 1). To be noted: read-out: Koff (sec^−1).
Test [2] has as its target T1, D2-R. To be noted: cited from earlier work.

Like-named read-outs stand apart in the source and are kept apart here.

`Cc1nc2n(c(=O)c1CCN1CCC(c3noc4cc(F)ccc34)CC1)CCCC2O` (stereo not drawn) [Paliperidone]: at D2-R [1], the koff (as a rule, a measure of how fast the partners let go of each other) came out at 0.000447 s⁻¹.

Turning to `CCN1CCC[C@H]1CNC(=O)c1c(O)c(Cl)cc(Cl)c1OC` [Raclopride], the Kd at D2-R [2] (at the D2-R) was 0.09 µM; on D2-R [2] (read-out: affinity of tracer for the D2-R, tracer) it was 0.095 µM.
